Antibody variant affinities, Ab-14 light chain, assay 1

The measurements come from Engelhart et al. 2022 (doi:10.1038/s41597-022-01779-4) through the FLAb antibody collection.

The target is the same throughout: PDVDLGDISGINAS, from the HR2 region of SARS-CoV-2 spike.

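AAYL50 was designed without a model: most single CDR substitutions and a random sample of double and triple ones. AlphaSeq pools MATa yeast showing the antibodies with MATalpha yeast showing the peptide. The frequency of each diploid, read from paired DNA barcodes, reflects how well the two displayed proteins bind. A regression on co-assayed BCL2-family reference pairs converts the normalised counts of each replicate to an apparent Kd. The assay was run in three technical replicates.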

Parent: Ab-14, a human scFv built as VH, three GGGGS repeats, VL. Only the CDRs of the light chain vary.
VH: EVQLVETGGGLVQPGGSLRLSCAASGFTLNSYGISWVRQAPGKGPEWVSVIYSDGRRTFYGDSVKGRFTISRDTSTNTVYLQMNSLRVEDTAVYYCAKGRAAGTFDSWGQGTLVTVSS
VL: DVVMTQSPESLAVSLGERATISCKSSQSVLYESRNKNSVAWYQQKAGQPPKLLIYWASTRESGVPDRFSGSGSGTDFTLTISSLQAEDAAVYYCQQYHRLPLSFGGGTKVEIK

Positions count from residue 1 of the parent VL; Y31A puts A in place of Y. Values are log10 of the apparent Kd in nM; lower means stronger binding. Where no diploid with the target was found in that replicate, the entry reads "ND": below detection, most likely a poor binder, though not proof of it.

changes,"log10 Kd, replicates",signal with controls
Y31A/K36H/V39N,ND ND 3.62,2/9 (3.37)
K24L/A40T/Q96L,ND ND 3.88,1/9 (3.46)
A40Y/Y97I/S103T,5.51 ND ND,3/9 (3.54)
Y31K/S38D/S58N,2.09 1.86 1.87,2/9 (4.74)
S26V/W56E/E61P,1.86 1.89 1.51,2/9 (3.09)
S25D/A57I/Y97V,3.48 3.34 3.53,3/9 (4.20)
L30T/T59Q/E61W,1.42 2.38 1.79,1/9 (3.44)
L30P/V39R/Y97V,4.91 4.38 6.53,5/9 (4.79)
V29I/W56G/A57P,4.05 3.01 4.12,5/9 (4.55)
R34K/K36T/S38M,1.60 1.35 1.53,2/9 (4.52)
K24D/V29A/R34Y,2.39 2.14 2.61,7/9 (5.31)
Q27H/E32I/W56C,ND 4.26 5.64,1/9 (4.88)
T59M/Q96A,1.83 1.56 1.78,0/9
S25L/T59H/P101T,4.02 ND ND,2/9 (4.44)
K24S/S26P/S58H,2.39 2.43 1.85,0/9
N37G/S38G/A40M,4.42 ND 5.36,3/9 (4.75)
Q27H/A57G/P101W,0.84 0.97 0.99,5/9 (4.63)
Y31R/E32Q/S62W,2.25 2.07 1.78,0/9
T59K/Y97I/L102T,0.83 1.01 0.94,1/9 (4.09)
S26I/L30Q/S103G,2.87 2.69 2.73,4/9 (4.52)
K36E/A40F/Y97F,4.24 ND ND,3/9 (3.00)
S26H/S33C/R34C,ND 4.34 ND,1/9 (4.31)
K24L/R99Q/S103C,4.26 ND ND,0/9
S33D/E61Q/L100M,0.96 1.19 1.08,3/9 (3.47)
S26H/R34F/N37G,3.77 3.63 ND,2/9 (3.76)
S26H/L30V/P101H,ND ND ND,0/9
N35W/V39D/S62E,6.13 ND ND,7/9 (5.01)
S26P/V29I/E32T,ND 4.73 ND,0/9
E61M/Q95K/R99K,ND 4.94 ND,2/9 (3.51)
S33P/N37D/R60Q,2.51 ND 4.78,1/9 (3.99)
Y31E/S33R/S58V,1.06 1.20 1.38,0/9
Q27F/W56L/R99Q,5.82 ND 5.05,0/9
Q27M/S38D/L100V,ND ND ND,0/9
V39D/E61D/H98I,ND ND ND,1/9 (3.68)
S28Q/V29D/V39G,3.48 3.75 ND,3/9 (4.39)
S33T/S62T/P101F,4.05 ND 3.18,0/9
Y31H/E32F/Q95G,ND ND ND,2/9 (3.10)
K24I/L30D/S33I,1.73 1.12 1.88,0/9
L30M/H98N,1.99 2.02 2.14,3/9 (3.71)
S28T/T59V/Q95M,3.06 3.30 ND,0/9
Q27Y/K36M/N37L,2.59 2.26 2.51,0/9
S28I/V39P/T59W,ND ND ND,0/9
R34V/A57L/S103Y,ND 3.58 3.44,1/9 (3.24)
S26W/Q27K/V39E,ND ND ND,0/9
L30S/R60E/S103M,ND ND ND,0/9
E32Y/N37W/P101T,2.75 2.54 2.31,2/9 (3.87)
L30F/K36E/Q95E,4.14 ND ND,2/9 (4.24)
L30C/S33T/S38C,ND ND ND,1/9 (4.02)
Y31R/L102I,ND 2.05 3.10,0/9
Q27T/Y31T/W56E,-0.27 -0.02 -0.28,6/9 (5.81)
K24R/R34M/P101Y,ND ND ND,0/9
Q27A/S38R/Q96H,ND ND ND,0/9

Parent in this assay: reference entry 0.65, copy in this library 1.68. Background: pairings of library AAYL50 with three empty control strains gave a value in 18% of cases (median 4.19, 5th percentile 2.99). Values in that range, when seen in few replicates, are hard to tell from nonspecific mating. The control count says in how many pairings with the empty strains this scFv gave a signal, with their mean in brackets.